This is an account of results in patent US8815951B2, “Inhibitors of epoxide hydrolases for the treatment of inflammation” (The Regents of the University of California, priority 1996, dated 2014).

Amino acid sequences for entries named in this document (tags omitted). A change or cut given only in a name is not applied to a line headed by its entry.
UniProt P80299: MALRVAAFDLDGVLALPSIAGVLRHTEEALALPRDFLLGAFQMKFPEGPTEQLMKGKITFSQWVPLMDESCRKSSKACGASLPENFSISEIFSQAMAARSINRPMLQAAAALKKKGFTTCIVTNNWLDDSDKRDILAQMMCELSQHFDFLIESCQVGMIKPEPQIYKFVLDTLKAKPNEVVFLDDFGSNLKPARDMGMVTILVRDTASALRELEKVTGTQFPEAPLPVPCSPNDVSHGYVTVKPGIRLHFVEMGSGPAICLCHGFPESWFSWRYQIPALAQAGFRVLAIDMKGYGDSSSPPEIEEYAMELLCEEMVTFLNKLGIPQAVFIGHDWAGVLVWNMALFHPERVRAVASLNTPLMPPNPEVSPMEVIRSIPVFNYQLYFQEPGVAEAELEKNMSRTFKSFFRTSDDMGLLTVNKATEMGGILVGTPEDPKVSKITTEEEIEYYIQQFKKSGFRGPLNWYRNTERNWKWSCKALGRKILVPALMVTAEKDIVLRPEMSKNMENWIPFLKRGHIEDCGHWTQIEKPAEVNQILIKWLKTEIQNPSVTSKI

Where two headings read alike, the source gives them in different places.

For test [1], the system named is 14,15-EET hydrolysis in vivo (sEH), SHR. The test is described as follows: Urinary DHET and EET excretion in SHR (GC-MS). Also noted: species or system rat. Particulars: DCU daily for 3 days, FIG. 4B.
In test [2] the target is EET hydrolysis in SHR renal S9 fractions (sEH) (Rattus norvegicus, UniProt P80299).
The next test has as its system mEH. The note with it: previous studies, Morisseau et al. 1999; cited from earlier work.

Broadly, the IC50 is the concentration needed to halve the response being measured. Regarding `O=C(NC1CCCCC1)NC1CCCCC1` [DCU, N,N′-dicyclohexylurea], in test [1], the “inhibition of 14,15-EET hydrolysis in vivo” value is on record as “potent inhibitor of 14,15-EET hydrolysis in vivo”. Also, in test [2] (FIG. 4A), the “inhibition of EET hydrolysis in vitro” value was “potent and selective inhibitor of EET hydrolysis in vitro”. In addition, the IC50 in test [2] (read-out: IC50 inhibition of 8,9-EET hydrolysis, 50 μM EET) turned out to be 86 ± 14 nM; in test [2] (read-out: IC50 inhibition of 11,12-EET hydrolysis, 50 μM EET), 540 ± 80 nM; in test [2] (read-out: IC50 inhibition of 14,15-EET hydrolysis, 50 μM EET) it was 450 ± 160 nM. For the same molecule, the “inhibition of mEH” value with mEH was “does not inhibit”.
